## AlphaSeq binding of Ab-14 heavy chain variants to a spike HR2 peptide

Antigen: PDVDLGDISGINAS, a 14-residue peptide of the SARS-CoV-2 spike HR2 region.

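In library AAYL49, one, two or three CDR residues were substituted; doubles and triples were drawn at random. The assay is AlphaSeq: two haploid yeast populations carry antibody and antigen on their surface. After mating in shaken culture at 30 °C for 16 h, diploids were selected and their barcode pairs sequenced. The ratio of observed to expected reads was calibrated, replicate by replicate, on BCL2-family standards whose Kd was known from biolayer interferometry. Mating was done three times.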

Each scFv is VH, three GGGGS repeats, VL, as in the parent Ab-14, and differs from it in the CDRs of the heavy chain only.
VH: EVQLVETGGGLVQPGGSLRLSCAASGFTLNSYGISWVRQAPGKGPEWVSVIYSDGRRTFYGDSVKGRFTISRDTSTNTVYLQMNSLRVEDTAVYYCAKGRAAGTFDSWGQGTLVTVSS
VL: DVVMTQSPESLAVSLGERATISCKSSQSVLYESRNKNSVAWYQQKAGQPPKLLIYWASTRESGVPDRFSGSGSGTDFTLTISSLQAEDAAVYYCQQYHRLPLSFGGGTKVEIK

Positions count from residue 1 of the parent VH; G33E puts E in place of G.
All variants listed here change R57 of the VH, counted from its first residue.
Values are log10 of the apparent Kd in nM; lower means stronger binding.
A mean of the replicates is given; it leaves out those without a signal.
"nd" means that the variant was in the library but no mating with the target was seen in that replicate; the authors take this as a sign of poor binding, and no number exists.
Order: sorted from the lowest average up, undetected variants last.
As a blank, each scFv also met three strains without target: over library AAYL49, 15% of these pairings were detected, typically at 4.06 and seldom below 2.83.

Variant G33E R57S T104I showed nd, 1.97, nd. With N30R R57G G61M the result was 3.35, nd, nd. With G33T R57K A101K the result was 3.38, nd, 3.41 (mean 3.39). Variant L29V N30S R57H showed 3.40, 2.51, 4.62 (mean 3.51). Variant R57V S107K showed nd, 3.55, nd. Variant T28A R56M R57V showed nd, 3.93, nd. For R57V T58Y, the assay gave 3.97, nd, nd. With V50R R57G G103N the result was nd, 4.09, nd.

Variant T28D R57M gave nd, nd, 4.53. Variant Y52K R57M gave nd, nd, 4.84. With F27P R57V the result was 6.28, nd, nd. Variant I34P R57V Y60H showed nd, nd, nd. With S31K R57F D106K the result was nd, nd, nd. With S53Q R57G S63H the result was nd, nd, nd. For I51E G55V R57Y, the assay gave nd, nd, nd. With F27H R57P F105D the result was nd, nd, nd.

With R57G F59L S63G the result was nd, nd, nd. For S53F R57Y A101R, the assay gave nd, nd, nd. With G55A R57T T58E the result was nd, nd, nd. Variant L29I R57I R100E gave nd, nd, nd. Variant F27H R57H F59I showed nd, nd, nd. Variant V50S G55I R57D showed nd, nd, nd. Variant R57T D62C F105R showed nd, nd, nd. With R57S G61E the result was nd, nd, nd.

Variant Y52W R57Y T104V gave nd, nd, nd. With N30D R57W T58R the result was nd, nd, nd. Variant S53Q G55T R57L showed nd, nd, nd. Variant G33K I34K R57L gave nd, nd, nd. Variant V50L R57D Y60V gave nd, nd, nd. Variant R57L F59N A101Q gave nd, nd, nd. For S31F R57N G103K, the assay gave nd, nd, nd. Variant R57W V64G gave nd, nd, nd.

For R57E D62K, the assay gave nd, nd, nd.

Reference: Engelhart et al. 2022, doi:10.1038/s41597-022-01779-4. File: FLAb, binding data.